The target of the test is T1, COX-2 (Mus musculus, UniProt Q05769).
T1 construct: endogenous in cells
T1 sequence (Q05769 18-604): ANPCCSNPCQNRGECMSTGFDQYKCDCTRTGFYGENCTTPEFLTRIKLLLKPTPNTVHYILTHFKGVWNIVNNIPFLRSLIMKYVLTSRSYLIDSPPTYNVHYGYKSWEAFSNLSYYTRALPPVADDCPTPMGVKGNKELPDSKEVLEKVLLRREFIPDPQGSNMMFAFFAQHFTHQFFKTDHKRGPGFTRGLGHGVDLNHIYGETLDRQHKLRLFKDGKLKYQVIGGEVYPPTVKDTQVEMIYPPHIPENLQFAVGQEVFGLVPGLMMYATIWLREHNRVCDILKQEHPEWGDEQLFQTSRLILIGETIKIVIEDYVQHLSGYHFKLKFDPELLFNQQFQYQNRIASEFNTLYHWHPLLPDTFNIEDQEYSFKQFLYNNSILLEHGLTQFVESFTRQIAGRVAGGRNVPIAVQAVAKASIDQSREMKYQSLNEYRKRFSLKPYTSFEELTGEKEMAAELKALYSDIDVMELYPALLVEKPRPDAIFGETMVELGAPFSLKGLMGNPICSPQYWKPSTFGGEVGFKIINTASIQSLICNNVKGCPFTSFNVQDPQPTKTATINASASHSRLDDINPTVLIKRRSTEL
As to the kind of experiment: Assay for the COX-2 inhibitory activity using RAW 264.7 cell line (PGE2 inhibition). The following applies: RAW264.7, test compound 10 nM, RAW 264.7 cells, interferon + LPS induced, read-out: Cyclooxygenase (COX) Inhibition (%) COX-2 (10 nM). The class given is cell-based. The method, then:
Each well was treated with 250 μM of aspirin and incubated at 37° C. for 2 hours. After the culture media were replaced with new culture media, the new culture media were treated with a test compound (10 nM) and incubated for 30 minutes. Then, each well was treated with interferon ? (100 units/ml) and lipopolysaccharide (LPS, 100 ng/ml) and incubated for 18 hours. The culture media were transferred to other test tubes. The concentration of PGE2 was quantified by means of the EIA kit (Cayman Chemicals).
The percentages of the COX inhibition were calculated according to the following equation:
% Inhibition=(concentration of PGE2 in test compound-untreated sample−concentration of PGE2 in test compound-treated sample) / (concentration of PGE2 in test compound-untreated sample)×100

This passage reports inhibition results from patent US6689805B2, “Pyrazole-3-one derivative, method for preparing the same, and pharmaceutical composition containing the same” (CJ Corp., priority 2002, dated 2004).

The inhibition is the relative decrease from the control value, in per cent.

For `Cc1onc(-c2ccccc2)c1-c1ccc(S(N)(=O)=O)cc1` [Reference (Valdecoxib), Valdecoxib, reference compound], the inhibition at 0.01 µM is 5.47%.
